These results are taken from ChEMBL document CHEMBL1138958, “Opioid receptor binding and antinociceptive activity of the analogues of endomorphin-2 and morphiceptin with phenylalanine mimics in the position 3 or 4” (Bioorg Med Chem Lett, 2006).

Amino acid sequences for entries named in this document (tags omitted).
UniProt P33533, whole entry, looked up: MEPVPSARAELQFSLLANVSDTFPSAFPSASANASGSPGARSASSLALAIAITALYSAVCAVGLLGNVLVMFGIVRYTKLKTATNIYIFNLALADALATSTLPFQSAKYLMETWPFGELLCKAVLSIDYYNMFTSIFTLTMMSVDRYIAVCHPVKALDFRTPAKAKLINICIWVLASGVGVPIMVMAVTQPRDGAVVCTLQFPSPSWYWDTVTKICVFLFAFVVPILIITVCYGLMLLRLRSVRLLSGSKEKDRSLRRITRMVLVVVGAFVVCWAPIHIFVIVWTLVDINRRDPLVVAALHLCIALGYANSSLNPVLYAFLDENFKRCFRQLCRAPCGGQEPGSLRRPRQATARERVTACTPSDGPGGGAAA
UniProt P33535, whole entry, looked up: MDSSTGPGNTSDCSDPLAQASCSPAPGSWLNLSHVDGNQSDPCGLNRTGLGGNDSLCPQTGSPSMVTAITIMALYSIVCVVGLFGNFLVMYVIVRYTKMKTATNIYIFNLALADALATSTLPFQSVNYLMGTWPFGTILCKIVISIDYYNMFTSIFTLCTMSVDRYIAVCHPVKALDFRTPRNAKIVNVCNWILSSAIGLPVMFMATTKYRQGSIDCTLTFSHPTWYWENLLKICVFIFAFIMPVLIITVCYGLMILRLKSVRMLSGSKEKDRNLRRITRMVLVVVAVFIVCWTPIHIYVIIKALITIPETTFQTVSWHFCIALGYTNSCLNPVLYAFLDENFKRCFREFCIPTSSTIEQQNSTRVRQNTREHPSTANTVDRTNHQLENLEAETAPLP

This experiment addresses Opioid receptors; mu & delta (Rattus norvegicus) (UniProt P33533+P33535). Put plainly: Selectivity for mu opioid receptor over delta opioid receptor. It counts as protein assay.

On to `NC(=O)[C@H](NC(=O)[C@H](Cc1ccccc1)NC(=O)[C@@H]1CCCN1C(=O)[C@@H](N)Cc1ccc(O)cc1)c1ccccc1`, for which the Ratio Ki was > 46.3.

Regarding `NC(=O)[C@@H](NC(=O)[C@H](Cc1ccccc1)NC(=O)[C@@H]1CCCN1C(=O)[C@@H](N)Cc1ccc(O)cc1)c1ccccc1`, the Ratio Ki is > 372.
